Legend:
human ORL-1 receptor = human ORL-1 receptor (Homo sapiens, UniProt P41146); experiment: Agonist action: inhibition of forskolin-stimulated cAMP elevation in HEK293 cells; assay type: cell-based; settings: HEK293 cells expressing human ORL-1 receptor, forskolin 1 μmol/L
rats [1] = experiment: Phase shift of circadian rhythm by the ORL-1 receptor agonist under a constant dark condition; settings: intraperitoneal, administered at CT6 or CT9
rats [2] = experiment: Action of the ORL-1 receptor agonist on re-entrainment of a light-dark cycle; settings: 6-hour advancement of the light-dark cycle, administered at ZT6
rats [3] = experiment: Antagonistic action of the ORL-1 receptor antagonist on the phase advancement by the ORL-1 receptor agonist; assay type: in vivo, rat; settings: constant dark, agonist intraperitoneally at CT6, compound D orally 1 hour before

Chains of the proteins cited; added tags and fusions are not shown. Lines headed by an entry give the natural chain unless they say otherwise; changes in a name come on top.
UniProt P41146: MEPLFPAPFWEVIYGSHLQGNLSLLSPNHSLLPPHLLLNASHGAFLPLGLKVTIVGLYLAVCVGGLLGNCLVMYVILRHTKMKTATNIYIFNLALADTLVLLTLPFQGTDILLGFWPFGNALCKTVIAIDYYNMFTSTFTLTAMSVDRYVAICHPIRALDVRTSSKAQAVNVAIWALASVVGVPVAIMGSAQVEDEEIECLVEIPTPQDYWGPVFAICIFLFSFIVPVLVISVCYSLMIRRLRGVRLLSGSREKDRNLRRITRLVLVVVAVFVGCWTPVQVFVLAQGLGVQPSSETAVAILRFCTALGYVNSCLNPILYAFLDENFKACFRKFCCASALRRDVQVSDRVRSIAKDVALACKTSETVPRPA

SMILES	inhibition of cAMP production (ORL-1 receptor agonistic activity) (human ORL-1 receptor)	phase shift of body-temperature circadian rhythm (rats [1])	time required for re-entrainment to a new light-dark cycle (rats [2])	phase advancement by the agonist after pre-administration of test compound D (rats [3])
CNC(=O)Cn1c(=O)n(C2CCN([C@@H]3Cc4cccc5cccc3c45)CC2)c2ccccc21	inhibited cAMP production depending on concentration	noticeable phase advancing action	about 3 days	–
O=C1NCN(c2ccccc2)C12CCN(C1Cc3cccc4cccc1c34)CC2 (racemic)	inhibited cAMP production depending on concentration	noticeable phase advancing action	–	antagonized by pre-administration of the test compound D
